scFv variants of Ab-14 (light chain) against a SARS-CoV-2 spike peptide

Target peptide (SARS-CoV-2 spike, HR2 region): PDVDLGDISGINAS

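The starting antibody came from a phage panning campaign against this peptide. This is the validation round: designs drawn from the data on random variants, tested in the same kind of assay. Their group label is 14L_En_Gen (En: ensemble of fine-tuned language models; Gen: genetic algorithm). Affinity was read by AlphaSeq, a pooled yeast mating assay with surface-displayed partners. Binding brings cells together so that they mate, and sequencing counts the barcode pairs among the diploids. Scores were corrected for input abundance and mapped to Kd with protein pairs of known affinity run in the same pool. Each pool was mated in six replicate cultures.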

Parent scFv Ab-14: VH joined to VL by a 15-residue (Gly4Ser)3 linker. Changes lie in the light chain CDRs alone.
VH: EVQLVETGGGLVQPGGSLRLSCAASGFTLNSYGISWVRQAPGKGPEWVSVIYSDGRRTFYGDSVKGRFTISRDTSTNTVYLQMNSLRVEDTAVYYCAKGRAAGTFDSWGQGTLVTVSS
VL: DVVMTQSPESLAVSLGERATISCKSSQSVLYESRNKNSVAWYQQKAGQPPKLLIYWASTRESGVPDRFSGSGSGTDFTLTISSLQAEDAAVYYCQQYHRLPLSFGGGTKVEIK

The parent's light chain CDRs are KSSQSVLYESRNKNSVA, WASTRES, QQYHRLPLS; each variant's own CDRs replace them letter for letter. Numbers give log10(Kd / nM), so 0 is 1 nM and 3 is 1 µM. Smaller is tighter. The mean shown is taken over the replicates in which the pair was detected. "n.d." marks a missing value. The strain was present, yet no cells mated with the target were sequenced in that replicate, which points to weak or no binding. Background: pairings of all light chain designs with three empty control strains gave a value in 4% of cases (median 2.64, 5th percentile 1.59). Values in that range, when seen in few replicates, are hard to tell from nonspecific mating. For each scFv, signals with the empty controls are counted beside the result, with their mean in brackets. The range of this assay differs from that of the first round, and the authors advise against merging the two. In the paper, a design with two or fewer of six values counts as a poor binder. The parent sequence was in this pool as ten entries: three were never detected, three once, and four in most replicates, with averages from 0.34 to 2.37.

CDR-L1,CDR-L2,CDR-L3,"replicates, log10 nM","log10 Kd (nM), mean",control signals
MLSQMWGIGMKAKNSVA,QASIRFN,QQYDRLPLI,2.47 2.09 1.64 1.77 1.65 2.45,2.01,2 of 18 (2.87)
HITMGMYVAGRHHSSIA,QAETRAK,QQYDRLPLS,1.48 1.45 1.39 1.05 1.73 2.16,1.54,0 of 18
KIGLTLNTLMHQKNNVA,DLVEREN,QQYFRLPLS,0.71 0.66 0.49 0.49 0.74 0.58,0.61,2 of 18 (2.40)
IVSQLMLWGYHAKNSIA,EAELRLN,QQYDRLPLI,0.29 0.57 0.57 0.14 0.12 0.27,0.33,2 of 18 (2.00)
MISQLTNMGTFAINSVA,QASVRNE,QQYDRLPLM,1.37 1.59 1.74 0.80 1.42 0.89,1.30,0 of 18
TISQLYNMGQFAINSVA,QASERCN,QQYDRLPLM,0.95 1.05 1.10 1.47 0.58 1.22,1.06,3 of 18 (2.81)
HITYGMQVMGRHSKSIA,QAEERAK,QQYDRLPLV,0.56 0.78 0.37 0.37 0.63 0.61,0.55,0 of 18
TISQITSLFSQTINNVA,EVSTREQ,QQYDRLPLM,1.41 0.74 0.70 0.52 1.21 0.70,0.88,3 of 18 (3.59)
QIYQAMHTLMQAKNNVA,DVNERGD,QQYFRLPLS,0.50 0.76 0.67 0.51 0.67 1.31,0.74,3 of 18 (2.87)
MVQQLYNMGTFAINSVA,QASQRNA,QQYDRLPLI,0.84 0.49 0.55 0.35 0.42 0.58,0.54,1 of 18 (2.47)
TISGVMQQMSHSKNNVA,EVSTRLD,QQYFRLPLE,1.30 0.84 1.11 0.49 0.53 0.88,0.86,0 of 18
TISQLMNMGQFAINSVA,QASIRNH,QQYDRLPLT,0.93 0.99 1.47 1.18 1.29 1.49,1.23,1 of 18 (2.30)
MVYQAAMMGTSARNSIA,NAEMRPD,QQYHRLPLI,0.14 -0.08 0.29 0.31 0.04 0.36,0.18,2 of 18 (3.04)
KLGYNTGTESFRKDNIA,DNDLREY,QQYDRLPLS,0.59 1.24 1.17 1.07 1.10 1.34,1.09,0 of 18
IVSQLMIWGMHAKNSIA,EAQTRLN,QQYDRLPLF,0.19 0.71 -0.04 0.36 0.50 0.55,0.38,1 of 18 (1.27)
MISQLYNMGTFAINSVA,QASERYN,QQYDRLPLM,0.48 0.62 0.28 0.83 1.30 0.45,0.66,1 of 18 (2.20)
KLTSITGTEKVKGNNVA,EMETRES,QQYNRLPLS,1.00 0.97 0.66 0.62 0.96 0.93,0.86,0 of 18
KLTSVTGTEKVHGNNVA,EMETREK,QQYNRLPLA,0.20 0.39 0.75 1.29 0.66 1.12,0.73,0 of 18
NIGMTLNMLEHKQNNVA,DLVEREN,QQYFRLPLS,0.68 0.46 0.11 0.04 0.43 0.58,0.38,1 of 18 (1.31)
TITNFMGNLSQNRNSVA,DTSTSGE,QSYDRLPLS,n.d. n.d. 3.73 n.d. n.d. n.d.,3.73,1 of 18 (2.58)
MISQVLNTLYMTGNNVA,DLQEREE,QQYFRLPLS,n.d. 2.28 2.39 1.85 1.67 1.58,1.95,1 of 18 (2.02)
KVSEFMKGLMSRQDSIA,DNTTRNS,QQYDRLPLS,2.91 n.d. n.d. n.d. n.d. n.d.,2.91,0 of 18
KISMTSENQLKNRNSVA,ELVTRLN,QQYNRLPLS,0.63 1.07 0.45 0.51 0.65 0.86,0.69,0 of 18
KIGMTLNQLMQKKNNVA,DLVTRET,QQYHRLPLS,0.27 0.76 -0.30 0.15 -0.03 0.50,0.23,0 of 18
KLRNVTGTEKVIGNNVA,EMETRER,QQYNRLPLS,n.d. n.d. n.d. n.d. 2.40 n.d.,2.40,0 of 18
KLSMFAHVETGVKNNVA,QMETRES,QQYDHLPLS,1.14 0.50 0.50 0.23 -0.16 0.63,0.47,1 of 18 (3.22)
TIGHTLMQGTRNRSNVA,EVSERLN,QQYDRLPLI,1.09 1.52 0.98 1.18 1.13 1.26,1.19,2 of 18 (3.09)
TIGQTLMTGVRNRSNVA,EVSQRLN,QQYDRLPLL,n.d. 3.94 2.01 2.37 1.86 n.d.,2.55,0 of 18
KLTMITGLEKVSKNNVA,EMETRMR,QQYNRLPLS,-0.10 -0.04 0.02 0.24 0.38 0.31,0.14,0 of 18
QLSSITGHMQMIKNNVA,EMETREN,QQYERLPLS,0.50 0.26 0.28 0.16 0.25 0.73,0.36,2 of 18 (3.26)
IVSQLMYWGMHAKNSIA,EAVTRLN,QQYDRLPLF,1.11 1.16 n.d. 0.39 1.30 1.90,1.17,0 of 18
MVTQMAMTGMKNKRSVA,NATTRES,QQYHRLPLI,0.61 0.58 0.54 0.81 0.65 0.91,0.68,0 of 18
MMSQVTGLGQRHRNNVA,QTSMREI,QQYDRLPLI,1.58 0.95 1.01 0.88 1.40 0.80,1.10,3 of 18 (2.70)
MISQVMNTLTRNGNNVA,DLQEREH,QQYFRLPLS,1.40 0.90 0.54 0.90 1.01 1.57,1.05,1 of 18 (2.32)
KLTATMRFEQKASNNIA,EVTNRIK,QQYYRLPLA,1.04 0.94 1.15 1.86 0.58 0.88,1.08,1 of 18 (1.86)
MISQLYNMGTFAINSVA,QASLRNV,QQYDRLPLA,1.75 1.39 1.14 1.93 2.16 1.33,1.62,2 of 18 (1.62)
HITMGMYVAGRHHSSIA,QAETRAK,QQYDRLPLI,2.16 1.97 n.d. n.d. 2.44 n.d.,2.19,1 of 18 (2.77)
MMSQVSGSGTRHRNNVA,QTSTREP,QQYDRLPLV,1.31 2.32 2.37 0.60 0.94 1.55,1.52,0 of 18
HITYGMQVMGRHSKSIA,QAETREK,QQYDRLPLI,0.94 1.01 0.67 0.72 1.03 0.60,0.83,2 of 18 (2.58)
HMSALTLQGMRLRNSVA,QMTTREN,QQYDHLPLA,0.76 0.85 0.76 0.77 0.65 1.01,0.80,0 of 18
TISQMTSLFSQTINNVA,EVSTREA,QQYDRLPLA,1.12 1.50 1.68 0.78 1.13 1.01,1.20,0 of 18
KLSTITGHMRMAKDNVA,EMVTREK,QQYNRLPLS,0.99 0.46 0.64 0.36 0.09 0.36,0.48,1 of 18 (2.93)
TISNVMNTLTRHGNNVA,DLTERED,QQYFRLPLS,0.07 0.03 0.18 0.12 -0.18 0.09,0.05,0 of 18
HLGLVTMSEEAVRNSVA,NNSTREE,QQYDRLPLS,1.48 1.80 1.74 1.79 2.23 1.78,1.81,2 of 18 (2.75)
MVTQMAMTGMKNKRSVA,NAETRED,QQYHHLPLI,0.18 -0.25 0.64 0.85 0.92 0.26,0.43,0 of 18
MISQLMNMGTFAINSVA,QATIRNS,QQYDRLPLT,1.51 1.35 1.93 2.53 1.59 2.54,1.91,0 of 18
MVSQLMVWGLHAKNSIA,EAEHRIN,QQYDRLPLF,n.d. n.d. n.d. n.d. 1.69 n.d.,1.69,1 of 18 (1.32)
HITYGMYVSGRYKSNIA,QAEERAK,QQYDRLPFI,0.77 -0.02 0.21 -0.20 0.89 0.79,0.41,0 of 18

The measurements come from Li et al. 2023 (doi:10.1038/s41467-023-39022-2) through the FLAb antibody collection.